For experiment [1], the system named is M-07e cells which endogenously express human c-KIT. Briefly: M-07e cellular assay: SCF-mediated cell proliferation (CellTiter Glo). The following applies: read-out: M-07e EC50, SCF-mediated proliferation of M-07e cells, 72 hours.
The target in experiment [2] is Recombinant human c-KIT kinase (Homo sapiens, UniProt P10721). The experiment in a line: c-KIT kinase chemiluminescence assay (ADP-Glo). The following applies: read-out: c-Kit IC50, ATP 50 μM. (In general: In ADP-Glo the light output rises with the ADP produced.)

Sequences of proteins named here, by UniProt entry; tags and fusion partners are left off. Residues count along the entry.
UniProt P10721, 544-976 limits assumed: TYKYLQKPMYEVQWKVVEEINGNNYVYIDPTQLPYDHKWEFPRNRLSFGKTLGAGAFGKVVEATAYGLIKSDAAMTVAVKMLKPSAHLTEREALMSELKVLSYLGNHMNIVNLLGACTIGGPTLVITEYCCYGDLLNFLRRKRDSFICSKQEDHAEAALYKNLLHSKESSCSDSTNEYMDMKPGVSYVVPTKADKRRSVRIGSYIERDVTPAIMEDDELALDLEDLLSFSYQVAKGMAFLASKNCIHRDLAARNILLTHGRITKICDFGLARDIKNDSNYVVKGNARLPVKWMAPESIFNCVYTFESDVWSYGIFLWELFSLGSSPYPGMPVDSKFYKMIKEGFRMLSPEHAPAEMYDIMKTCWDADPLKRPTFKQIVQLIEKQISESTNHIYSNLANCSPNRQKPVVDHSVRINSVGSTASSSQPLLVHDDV

Molecules are shown by their SMILES.

Consider `Cc1ccc(-c2nc([C@H]3C[C@@H]3F)c[nH]2)cc1NC(=O)c1cnn2ccc(N3CC4(COC4)C3)cc12`, for which the EC50 in experiment [1] was less than 100 nM.

Turning to `O=C(Nc1cc(-c2noc([C@H]3C[C@@H](OC(F)F)C3)n2)cnc1Cl)c1cnn2ccc(N3CC4(C3)CC(O)(C(F)(F)F)C4)cc12`, in experiment [2], the IC50 (usually the midpoint of a concentration-inhibition curve) is greater than 1 µM. For the same compound, the EC50 in experiment [1] is 100 to 1000 nM.

For the compound `Cc1ccc(-c2nc([C@H]3C[C@@H]3F)co2)cc1NC(=O)c1cnn2ccc(N3CC4(COC4)C3)cc12`, the EC50 in experiment [1] was less than 100 nM.

As for `Cc1ccc(-c2noc([C@H]3C[C@@H]3F)n2)cc1NC(=O)c1cnc(-c2ccc3c(c2)c(C)nn3CC(C)(C)O)o1`, the IC50 in experiment [2] was less than 0.1 µM. In experiment [1], the EC50 is less than 100 nM.

Source of the values: patent publication US20250304600A1, “PHARMACEUTICAL COMPOUNDS AND COMPOSITIONS AS c-KIT KINASE INHIBITORS” (Enanta Pharmaceuticals, Inc., priority 2023, published 2025).
